The target of one test is integrin α 4β1 (Homo sapiens, UniProt P05556+P13612). As to the kind of experiment: VCAM antagonistic activity (VCAM-1/α4β1 binding assay), Jurkat cells binding to VCAM-1. The following applies: read-out: VCAM-1/α 4 β 1 linking antagonization activity IC50; Jurkat cells (human T cells) binding to recombinant human VCAM-1; room temperature, 30 minutes. As to the method:
(Test Example) VCAM Antagonistic Activity (VCAM-1/α4β1 Binding Assay):
The capacity of a test substance antagonistic to the binding of cell strain Jurkat (ATCC TIB-152) of human T cells, known to express integrin α 4β1, to VCAM-1 was determined.
(§1) 100 μl/well of a solution (500 ng/ml) of recombinant human VCAM-1 (R & D systems) solution diluted with buffer A (0.1 M NaHCO3, pH 9.6) was added to a micro titer plate having 96 wells (Nunc Maxisorp). After the incubation at 4° C. overnight, unbound VCAM-1 was removed by washing once with PBS. […]
Jurkat cells were washed with Dulbecco modified Eagle medium (SIGMA, hereinafter referred to as “DMEM”) twice and then incubated in DMEM containing 10 μg/ml of Calcein-AM (Wako Pure Chemical Industries, Ltd.) at 37° C. in dark place for 30 minutes to label with fluorescence. […]
(§2) 50 μl of a test substance of various concentrations obtained by the dilution with the binding buffer was added to the plate. […] The fluorescence quantity of the bound cells remaining in the wells was determined with a fluorescent plate reader (Wallac 1420 ARVO multi-label counter) (filter excitation wave length: 485 nm, emission wave length: 535 nm). […] The binding rate of each test material in various concentrations was determined while the fluorescent strength of the test material-free well was determined to be 100%. […]

Protein sequences, listed by entry. Tags and fused reporters are not part of them. Residues count along the entry.
UniProt P05556, 21-798 limits assumed: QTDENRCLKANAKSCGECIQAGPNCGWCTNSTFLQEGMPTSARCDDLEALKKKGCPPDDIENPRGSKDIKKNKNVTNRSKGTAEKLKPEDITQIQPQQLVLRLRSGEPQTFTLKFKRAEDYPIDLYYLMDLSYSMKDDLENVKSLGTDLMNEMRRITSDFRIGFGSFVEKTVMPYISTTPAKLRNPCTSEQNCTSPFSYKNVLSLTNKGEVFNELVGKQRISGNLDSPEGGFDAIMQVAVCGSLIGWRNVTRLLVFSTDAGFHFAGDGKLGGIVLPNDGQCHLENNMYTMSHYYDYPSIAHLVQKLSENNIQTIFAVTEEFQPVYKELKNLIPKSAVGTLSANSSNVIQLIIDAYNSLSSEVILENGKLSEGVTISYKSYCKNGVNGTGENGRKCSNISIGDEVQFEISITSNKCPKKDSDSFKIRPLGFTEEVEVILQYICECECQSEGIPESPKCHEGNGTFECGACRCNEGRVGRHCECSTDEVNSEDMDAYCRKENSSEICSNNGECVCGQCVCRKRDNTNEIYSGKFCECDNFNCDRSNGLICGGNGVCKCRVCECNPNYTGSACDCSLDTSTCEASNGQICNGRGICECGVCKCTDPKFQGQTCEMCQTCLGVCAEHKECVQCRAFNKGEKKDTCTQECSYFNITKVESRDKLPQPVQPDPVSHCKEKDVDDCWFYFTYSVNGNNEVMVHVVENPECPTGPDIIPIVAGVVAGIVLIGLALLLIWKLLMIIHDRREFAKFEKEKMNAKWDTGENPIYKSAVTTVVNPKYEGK
UniProt P13612, 34-1032 limits assumed: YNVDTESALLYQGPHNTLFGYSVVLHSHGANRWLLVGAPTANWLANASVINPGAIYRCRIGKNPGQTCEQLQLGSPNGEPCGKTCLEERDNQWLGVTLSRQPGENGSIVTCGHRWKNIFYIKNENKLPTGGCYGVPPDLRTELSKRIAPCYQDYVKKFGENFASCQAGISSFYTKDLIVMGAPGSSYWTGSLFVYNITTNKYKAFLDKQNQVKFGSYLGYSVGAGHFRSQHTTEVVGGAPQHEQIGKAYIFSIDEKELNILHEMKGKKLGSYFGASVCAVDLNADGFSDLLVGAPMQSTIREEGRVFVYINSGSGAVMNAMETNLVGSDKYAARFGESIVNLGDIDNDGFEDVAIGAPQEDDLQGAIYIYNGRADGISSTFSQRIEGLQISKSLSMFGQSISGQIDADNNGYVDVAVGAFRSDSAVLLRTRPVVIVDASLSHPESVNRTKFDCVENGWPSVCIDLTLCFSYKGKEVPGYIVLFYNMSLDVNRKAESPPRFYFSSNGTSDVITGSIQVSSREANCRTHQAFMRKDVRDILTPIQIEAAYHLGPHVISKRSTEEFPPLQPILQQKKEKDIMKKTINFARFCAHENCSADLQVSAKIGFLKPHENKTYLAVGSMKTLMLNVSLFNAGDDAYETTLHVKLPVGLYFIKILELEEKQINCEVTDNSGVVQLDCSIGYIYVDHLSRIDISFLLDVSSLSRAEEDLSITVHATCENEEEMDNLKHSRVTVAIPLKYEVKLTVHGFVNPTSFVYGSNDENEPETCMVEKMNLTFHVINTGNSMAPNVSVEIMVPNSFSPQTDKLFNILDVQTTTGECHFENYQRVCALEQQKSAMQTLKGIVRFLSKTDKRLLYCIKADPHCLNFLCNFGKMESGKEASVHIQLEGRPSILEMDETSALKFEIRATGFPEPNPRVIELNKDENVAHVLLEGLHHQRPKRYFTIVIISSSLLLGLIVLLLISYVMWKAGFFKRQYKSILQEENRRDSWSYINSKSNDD
UniProt P26010, 20-798 limits assumed: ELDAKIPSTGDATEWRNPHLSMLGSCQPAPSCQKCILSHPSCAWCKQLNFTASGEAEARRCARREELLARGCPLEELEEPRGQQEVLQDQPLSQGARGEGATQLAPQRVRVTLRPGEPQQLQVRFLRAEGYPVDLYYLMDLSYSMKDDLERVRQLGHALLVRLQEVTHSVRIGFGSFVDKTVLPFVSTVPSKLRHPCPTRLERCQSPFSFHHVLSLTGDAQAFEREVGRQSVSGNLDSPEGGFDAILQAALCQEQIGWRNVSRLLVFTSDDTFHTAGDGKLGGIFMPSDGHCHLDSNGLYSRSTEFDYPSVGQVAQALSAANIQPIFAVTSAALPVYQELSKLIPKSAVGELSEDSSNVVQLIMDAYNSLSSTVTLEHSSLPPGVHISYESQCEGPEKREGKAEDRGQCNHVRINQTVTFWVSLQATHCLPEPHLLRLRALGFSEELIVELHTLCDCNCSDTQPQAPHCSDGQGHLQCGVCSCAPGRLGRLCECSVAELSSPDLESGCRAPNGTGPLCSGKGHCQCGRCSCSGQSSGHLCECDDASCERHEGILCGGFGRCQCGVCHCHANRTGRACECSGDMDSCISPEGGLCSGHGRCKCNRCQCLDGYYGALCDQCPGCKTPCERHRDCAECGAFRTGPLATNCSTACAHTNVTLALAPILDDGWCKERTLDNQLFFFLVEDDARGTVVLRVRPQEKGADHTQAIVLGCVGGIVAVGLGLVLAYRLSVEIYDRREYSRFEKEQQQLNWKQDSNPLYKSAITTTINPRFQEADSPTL

A further test has as its target integrin α 4β7 (Homo sapiens, UniProt P13612+P26010). In words: VCAM antagonistic activity (VCAM-1/α4β7 binding assay), RPMI-8866 cells binding to VCAM-1. Conditions: read-out: VCAM-1/α 4 β 7 linking antagonization activity IC50; RPMI-8866 cells (human B cells) binding to recombinant human VCAM-1; binding buffer containing 4 mM of MnCl2; room temperature, 30 minutes. As to the method: (Test Example) VCAM Antagonistic Activity (VCAM-1/α4β7 Binding Assay):
The capacity of a test substance antagonistic to the binding of lymphoma cell strain RPMI-8866 of human B cells, known to express integrin α 4β7, to VCAM-1 was determined.
as §1
RPMI-8866 cells were incubated in DMEM containing 10 μg/ml of Calcein-AM (Wako Pure Chemical Industries, Ltd.) at 37° C. for 30 minutes to label with fluorescence. […]
as §2

For one compound, IC50 results are on record in patent publication US7105520B2, “Phenylalanine derivatives” (Ajinomoto Co., Inc., priority 2000, dated 2006).

With `O=C(N[C@@H](Cc1ccc(OCc2c(Cl)cccc2Cl)cc1)C(=O)O)c1cc(N2CCCCC2)ccc1[N+](=O)[O-]`, the results for the IC50 on integrin α 4β1 and at integrin α 4β7 were 19 µM and 0.49 µM, respectively.
